Assay results reported in patent publication US20090105220A1, “PROCESS FOR THE PREPARATION OF NONPEPTIDE SUBSTITUTED SPIROBENZOAZEPINE DERIVATIVES” (priority 2003, published 2009).

Assay: Solubility in water
Settings: isolated crystalline salt

(4R)-1-[4-(2-chloro-5-fluorobenzoyl)amino-3-methoxybenzoyl]-1,2,3,5-tetrahydro-spiro[4H-1-benzazepine-4,1′-[2]cyclopentene]-3′-carboxylic Acid Diethylamine Salt [Example 26]
Solubility in water: > 10000 µg/mL
